# In publication PMC11019746, “Illuminating Neuropeptide Y Y4 Receptor Binding: Fluorescent Cyclic Peptides with Subnanomolar Binding Affinity as Novel Molecular Tools” (ACS Pharmacology & Translational Science, 2024):
# By UniProt entry, the sequences of proteins in these tests, tags left out. Chains listed by the source or under a name are the forms on record and can include a tag or linker.
# UniProt P50391, with tags, fused parts or gaps with the stated changes: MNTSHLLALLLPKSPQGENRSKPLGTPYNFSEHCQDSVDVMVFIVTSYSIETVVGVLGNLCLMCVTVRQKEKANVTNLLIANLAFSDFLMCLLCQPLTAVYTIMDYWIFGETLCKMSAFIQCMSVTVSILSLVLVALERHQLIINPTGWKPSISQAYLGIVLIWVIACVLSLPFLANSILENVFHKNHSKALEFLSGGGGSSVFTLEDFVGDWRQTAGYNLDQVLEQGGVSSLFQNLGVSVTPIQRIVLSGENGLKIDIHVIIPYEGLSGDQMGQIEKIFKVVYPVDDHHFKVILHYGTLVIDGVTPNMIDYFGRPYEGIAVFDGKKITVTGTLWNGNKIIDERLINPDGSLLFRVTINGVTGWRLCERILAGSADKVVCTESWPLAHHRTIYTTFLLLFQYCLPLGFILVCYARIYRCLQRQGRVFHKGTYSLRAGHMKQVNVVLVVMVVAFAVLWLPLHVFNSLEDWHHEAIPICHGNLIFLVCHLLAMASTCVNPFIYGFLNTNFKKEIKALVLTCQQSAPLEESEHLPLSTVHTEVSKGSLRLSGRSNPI
# Legend:
# hY4R [1] = target: T1, hY4R (Homo sapiens, UniProt P50391); assay: Y4R radioligand competition binding, whole CHO-hY4R-Gqi5-mtAEQ cells, [3H]UR-KK200; set-up: expressed in transfected cells; host or cells: CHO (co-expressing Gqi5 and mitochondrially targeted aequorin); conditions: [3H]UR-KK200 c = 1 nM, read-out: pKi ± SEM hY4R (converted)
# Method: All radioligand binding assays were performed at intact Y receptor expressing cells at 23 ± 2 °C.
# (logarithmic form in the case of pKi values).
# hY4R [2] = target: T1, hY4R; assay: Flow cytometric Y4R saturation and kinetic binding of fluorescent ligands (CHO-hY4R-Gqi5-mtAEQ cells); set-up: expressed in transfected cells; host or cells: CHO (co-expressing Gqi5 and mitochondrially targeted aequorin); conditions: buffer I (Na+-free), 22 ± 2 °C
# hY4R-Nluc(intraECL2) = hY4R-Nluc(intraECL2) (Homo sapiens, UniProt P50391, INS195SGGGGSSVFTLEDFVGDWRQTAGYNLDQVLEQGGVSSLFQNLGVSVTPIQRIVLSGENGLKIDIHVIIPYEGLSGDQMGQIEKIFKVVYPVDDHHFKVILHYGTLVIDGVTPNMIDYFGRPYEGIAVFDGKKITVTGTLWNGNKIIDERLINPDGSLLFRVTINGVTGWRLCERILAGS); assay type: binding; set-up: expressed in transfected cells
# hY5R = target: T2, hY5R (Homo sapiens, UniProt Q15761); conditions: HEC-1B-hY5R cells; read-out: Kd of radioligand at Y5R; cited from earlier work
# T2 construct: expressed in transfected cells; host or cells: HEC-1B (human endometrial cancer)
# T2 sequence (Q15761 1-445): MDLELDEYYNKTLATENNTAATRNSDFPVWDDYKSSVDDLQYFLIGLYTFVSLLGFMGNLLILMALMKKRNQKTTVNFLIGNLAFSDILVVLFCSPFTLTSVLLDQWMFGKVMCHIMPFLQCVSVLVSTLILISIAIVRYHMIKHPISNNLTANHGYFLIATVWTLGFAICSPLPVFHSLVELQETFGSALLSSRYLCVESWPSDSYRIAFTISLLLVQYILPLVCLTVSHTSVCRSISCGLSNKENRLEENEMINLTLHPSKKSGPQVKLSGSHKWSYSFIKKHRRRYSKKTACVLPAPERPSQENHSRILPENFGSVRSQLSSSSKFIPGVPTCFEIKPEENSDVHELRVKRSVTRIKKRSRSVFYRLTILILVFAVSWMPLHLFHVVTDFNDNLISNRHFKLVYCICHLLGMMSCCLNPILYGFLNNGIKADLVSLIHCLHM
Compound,Ki (hY4R [1]) [nM],Kd (hY4R [2]; saturation binding Kd) [nM],Kd (hY4R [2]; saturation binding pKd) [nM],"Kd (hY4R-Nluc(intraECL2); koff(bi,fast)/kon(bi,fast), read-out: Kd(kin) bi, fast) [nM]","Kd (hY4R-Nluc(intraECL2); koff(mono)/kon(mono), read-out: Kd(kin) mono) [nM]",Kd (hY5R) [nM]
CC(C)C[C@H](NC(=O)[C@@H]1CCCNC(N)=NC(=O)NCCCCNC(=O)[C@H](NC(=O)CCCNC(=O)CCC#Cc2ccc3c(c2)C(C)(C)C2=C4C=C5C6=[N+](CCC5OC4CCN23)c2ccc(S(=O)(=O)[O-])cc2C6(C)C)CC(=O)N[C@@H](CCCNC(=N)N)C(=O)N[C@@H](Cc2ccc(O)cc2)C(=O)N1)C(=O)N[C@@H](CCCNC(=N)N)C(=O)N[C@@H](Cc1ccc(O)cc1)C(N)=O (stereo partly drawn) [Compound 16],0.195,0.3,0.275,1.4,0.3,–
"[^3H]propionyl-pNPY: tritiated propionylated porcine neuropeptide Y, radioligand for Y2R and Y5R",–,–,–,–,–,11

# Where two headings read alike, the source gives them in different places.
